Reference: patent US20060204502A1 (priority 2004, published 2006)

Sequences of proteins named here, by UniProt entry; tags and fusion partners are left off.
UniProt P08183, whole entry: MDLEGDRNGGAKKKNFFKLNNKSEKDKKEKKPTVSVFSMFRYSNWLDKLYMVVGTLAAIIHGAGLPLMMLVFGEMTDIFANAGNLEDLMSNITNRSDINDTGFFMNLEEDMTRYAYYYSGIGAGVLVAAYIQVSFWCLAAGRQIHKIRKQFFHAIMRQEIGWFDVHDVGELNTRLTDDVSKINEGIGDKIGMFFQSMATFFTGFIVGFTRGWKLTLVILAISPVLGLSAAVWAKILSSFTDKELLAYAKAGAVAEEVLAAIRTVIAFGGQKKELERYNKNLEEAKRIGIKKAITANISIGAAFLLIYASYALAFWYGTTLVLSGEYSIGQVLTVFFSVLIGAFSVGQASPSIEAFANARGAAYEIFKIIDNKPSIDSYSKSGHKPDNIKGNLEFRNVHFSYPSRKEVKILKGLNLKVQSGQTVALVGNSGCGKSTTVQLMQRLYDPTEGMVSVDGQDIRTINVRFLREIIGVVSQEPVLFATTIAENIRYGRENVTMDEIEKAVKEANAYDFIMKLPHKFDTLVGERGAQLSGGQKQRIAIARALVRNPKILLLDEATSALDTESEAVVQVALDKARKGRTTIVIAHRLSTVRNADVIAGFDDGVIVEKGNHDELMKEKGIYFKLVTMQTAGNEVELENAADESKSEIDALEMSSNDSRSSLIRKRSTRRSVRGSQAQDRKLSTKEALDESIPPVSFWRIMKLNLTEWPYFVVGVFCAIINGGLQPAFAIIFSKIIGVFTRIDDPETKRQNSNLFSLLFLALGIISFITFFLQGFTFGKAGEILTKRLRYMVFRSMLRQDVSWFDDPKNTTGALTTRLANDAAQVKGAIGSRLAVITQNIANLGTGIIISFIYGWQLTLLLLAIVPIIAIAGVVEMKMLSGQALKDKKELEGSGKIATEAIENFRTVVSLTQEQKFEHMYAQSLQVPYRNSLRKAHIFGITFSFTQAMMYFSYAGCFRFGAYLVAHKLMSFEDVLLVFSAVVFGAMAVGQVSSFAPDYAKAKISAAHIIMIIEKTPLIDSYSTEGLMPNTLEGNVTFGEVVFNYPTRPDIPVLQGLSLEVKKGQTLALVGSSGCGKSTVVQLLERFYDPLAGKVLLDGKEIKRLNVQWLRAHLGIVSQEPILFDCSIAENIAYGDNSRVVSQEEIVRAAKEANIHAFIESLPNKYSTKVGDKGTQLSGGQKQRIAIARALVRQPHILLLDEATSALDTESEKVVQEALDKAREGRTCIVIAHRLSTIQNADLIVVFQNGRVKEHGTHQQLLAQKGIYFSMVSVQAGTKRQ

Target: P-gp (Homo sapiens, UniProt P08183)
Conditions: HeL023 cells; 70 μM

Compound: Nc1nc(NCCc2ccc(O)cc2)nc2nc(-c3ccco3)nn12
- % of Rh123 Negative Cells (cells expressing P-gp activity): 93.0 ± 1.1%
